This note sets out measurements from ChEMBL document CHEMBL1146982, “Alpha-methylated derivatives of 2-arachidonoyl glycerol: synthesis, CB1 receptor activity, and enzymatic stability” (Bioorg Med Chem Lett, 2006).

Protein sequences, listed by entry. Tags and fused reporters are not part of them.
UniProt P20272, whole entry: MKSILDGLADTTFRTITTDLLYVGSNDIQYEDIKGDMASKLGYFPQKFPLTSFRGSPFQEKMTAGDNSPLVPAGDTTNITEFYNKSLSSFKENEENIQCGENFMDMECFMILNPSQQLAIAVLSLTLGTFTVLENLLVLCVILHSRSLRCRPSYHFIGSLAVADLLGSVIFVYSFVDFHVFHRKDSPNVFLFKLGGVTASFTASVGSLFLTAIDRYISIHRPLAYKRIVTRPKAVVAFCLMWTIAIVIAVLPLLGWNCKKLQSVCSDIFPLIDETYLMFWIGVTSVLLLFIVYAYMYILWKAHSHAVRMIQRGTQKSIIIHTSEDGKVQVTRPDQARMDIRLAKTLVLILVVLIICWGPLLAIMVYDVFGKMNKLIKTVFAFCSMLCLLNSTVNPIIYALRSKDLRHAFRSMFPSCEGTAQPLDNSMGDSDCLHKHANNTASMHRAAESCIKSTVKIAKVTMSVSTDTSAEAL

In the assay the target is Cannabinoid receptor 1 (Rattus norvegicus, UniProt P20272). Kind of assay: Potency at CB1 receptor in rat brain by [35S]GTP-gamma-S binding assay. In kind it is functional, tissue-based. Background: GTPγS resists hydrolysis and so accumulates on activated G proteins.

As to `CCCCC/C=C\C/C=C\C/C=C\C/C=C\CCCC(=O)OC(CO)CO` [2-ARACHIDONOYLGLYCEROL], a half-maximal response (EC50) required 1 µM.
